Literature values, collected in patent publication US20260232847A1, “Nanoparticles For Imaging And Treatment Of Arthritis And Inflammatory Joint Diseases” (Cornell University, priority 2023, published 2026).

Settings: in vivo

B1: anakinra conjugated to block co-polymer nanoparticles: anakinra conjugated to block co-polymer nanoparticles (dh~270 nm), literature system (conjugate, chains of the INN, looked up)
chain: MRPSGRKSSKMQAFRIWDVNQKTFYLRNNQLVAGYLQGPNVNLEEKIDVVPIEPHALFLGIHGGKMCLSCVKSGDETRLQLEAVNITDLSENRKQDKRFAFIRSDSGPTTSFESAACPGWFLCTAMEADQPVSLTNMPDEGVMVTKFYFQEDE
modifications: block co-polymer nanoparticles
Q: For B1, which joint half-life is on record?
A: The joint half-life was 72 h.
